# Laboratory results: patent publication US7442519B2, “KCNQ2-15 potassium channel” (priority 2002, dated 2008)
# Test system: Xenopus laevis oocytes
# Test: Electrophysiological analysis (two-electrode voltage clamp) of homotetrameric potassium channels
# Assay type: cell-based
# Conditions: 0.4 ng of DNA injected
# Experimental: The animal was anesthetized and pieces of the ovary were surgically removed and individual oocytes were dissected away in a saline solution (ND96) containing 96 mM NaCl, 2 mM KCl, 2 mM CaCl2, 2 mM MgCl2 and 5 mM HEPES at pH 7.4. Stage V and VI oocytes were treated at room temperanre for 2 h with collagenase type 1A (1 mg/ml) in the presence of 0.2 mg/ml trypsin inhibitor in saline solution to discard follicular cells. The concentrations were determined by measuring the absorbance at 260 nm. DNA corresponding to KCNQ2, 3H2 and 3H9 K+ channels were subcloned in PEKO vector in order to generate the respective cRNAS. cRNA concentrations were measured by absorbance at 260 nm. cRNA solutions were injected (about 50 nL/oocyte) using a pressure microinjector (Inject+matic, Geneve). Oocytes were then kept for 2-6 days in ND96 solution supplemented wirn 50 U/mL penicillin and 50 U/mL streptomycin.
# In a 0.3 mL perfusion chamber, a single oocyte was impaled with two standard glass microelectrode (0.5-2 Mohm resistance) filled with 3M KCl and maintained under voltage clamp using a Dagan TEV200 amplifier system, USA. Electrical stimulations, data acquisition and analyses were performed using pClamp software (Axon Instruments, USA). […]
substance,measurement,value
KCNQ2-fl: full-length KCNQ2 polypeptide of SEQ ID NO: 7,intensity of the M-current generated by the homotetrameric potassium channel,about 1 μA
